## Binding of CDR-mutated scFvs to a peptide of the spike HR2 region

Source: Li et al. 2023 (doi:10.1038/s41467-023-39022-2), MIT Lincoln Laboratory and A-Alpha Bio; data file from the FLAb repository.

Target peptide (SARS-CoV-2 spike, HR2 region): PDVDLGDISGINAS

Parent scFv Ab-14: VH joined to VL by three GGGGS repeats. Changes lie in the light chain CDRs alone.
VH: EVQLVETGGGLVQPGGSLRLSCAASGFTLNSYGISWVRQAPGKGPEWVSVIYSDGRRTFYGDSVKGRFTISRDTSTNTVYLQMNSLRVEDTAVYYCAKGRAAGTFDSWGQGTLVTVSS
VL: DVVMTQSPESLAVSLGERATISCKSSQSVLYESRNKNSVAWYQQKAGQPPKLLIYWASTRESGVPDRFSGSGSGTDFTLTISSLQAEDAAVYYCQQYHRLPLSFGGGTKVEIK

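The parent was found by panning a naive human phage display library on the peptide. The variants were designed computationally from a first round of random CDR variants and then made and measured. Their group label is 14L_Ctrl (Ctrl: baseline library sampled from a position-specific scoring matrix, with some repeated check sequences). AlphaSeq pools MATa yeast showing the antibodies with MATalpha yeast showing the peptide. The frequency of each diploid, read from paired DNA barcodes, reflects how well the two displayed proteins bind. The ratio of observed to expected reads was calibrated, replicate by replicate, on BCL2-family standards whose Kd was known from biolayer interferometry. Mating was done six times.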

Positions count from residue 1 of the parent VL; W56A puts A in place of W. Scale: log10 of Kd in nM, estimated from mating counts; low values are strong binders. Replicates are averaged; those with no signal do not enter the mean. A pair that was not seen in that replicate is written "nd"; this usually means weak binding, but a binder can also be missed. The parent sequence was in this pool as ten entries: three were never detected, three once, and four in most replicates, with averages from 0.34 to 2.37. The range of this assay differs from that of the first round, and the authors advise against merging the two. Empty control strains, which show no peptide, gave a signal in 4% of pairings with all light chain designs; the median was 2.64 and 95% of these signals were weaker than 1.59. No background was subtracted. For each scFv, signals with the empty controls are counted beside the result, with their mean in brackets. The authors averaged sequences with at least three values out of six and counted those with two or fewer as poor binders.

changes	log10 Kd (nM) by replicate	log10 Kd (nM), mean	control signals
W56A/Y97V	1.60 2.35 nd nd nd 2.33	2.09	0 of 18
R34F/Y97C/H98D	nd nd nd nd nd nd	nd	0 of 18
S26V	nd nd nd nd nd nd	nd	0 of 18
L30P/S62D/P101Q	nd nd nd nd nd nd	nd	0 of 18
E32G/S33D/N35P/S103K	2.94 nd 1.24 nd nd 2.48	2.22	1 of 18 (2.08)
Q27G/K36A	nd 1.80 nd 2.15 nd 2.15	2.03	0 of 18
Y97T	2.08 1.09 nd 1.86 2.87 1.30	1.84	1 of 18 (1.84)
V29L/W56S	nd 0.48 0.11 nd 0.13 nd	0.24	0 of 18
S25H/V39I/W56A	0.53 0.22 0.54 0.33 0.46 0.54	0.44	0 of 18
S25Y/Q27I/W56Q/S58V	0.65 1.20 0.56 0.48 0.65 1.51	0.84	1 of 18 (2.24)
S25L/Q27I/Y31G	1.03 0.73 0.39 0.54 0.49 0.83	0.67	0 of 18
S25W/S28G	2.12 2.04 2.55 2.34 2.40 2.08	2.25	0 of 18
S25M/L30M/S33G/W56F/E61S	0.73 0.74 0.75 0.69 0.73 1.03	0.78	1 of 18 (2.42)
Q27I/Y31G	1.83 nd 1.30 2.34 2.09 2.07	1.92	0 of 18
S25C/K36H/W56Y	1.10 0.70 0.40 0.46 0.75 0.77	0.70	2 of 18 (2.79)
V29W/S33G	0.29 1.76 0.76 0.94 1.65 1.02	1.07	0 of 18
S26M/Y31D/H98R/R99S	1.63 nd 2.71 nd nd 2.83	2.39	0 of 18
S25W/S62L	nd nd nd nd nd 1.87	1.87	0 of 18
T59V	2.15 2.37 1.57 2.20 1.99 nd	2.06	0 of 18
Y31D/N35P/W56Q/R99Y	2.26 nd 2.62 2.42 nd 2.93	2.56	0 of 18
K24I/S26F/L30A/L100H/L102E	nd nd nd nd nd nd	nd	0 of 18
S25L/R34V/L100D/S103P	0.79 0.71 0.60 0.98 1.64 0.94	0.94	0 of 18
K24H/N35D/K36Y/W56T/E61T	nd 1.86 nd 2.44 3.33 2.75	2.60	1 of 18 (2.64)